Values joined by “and” are separate entries in the source; they are usually repeats but may differ in a detail not shown here. Identical values can stand only once. Like-named read-outs stand apart in the source and are kept apart here.
Experiments:
[1] = target: T1, UGT1A4 (Homo sapiens, UniProt P22310); assay: UGT1A4 inhibition in HLMs (trifluoperazine); type: in vitro ADME; settings: average in triplicate, read-out: IC50, UGT 1A4
T1 construct: pooled HLMs (0.25 mg/mL); tissue XenoTech H2630; host or cells: pooled human liver microsomes, mixed gender
T1 sequence (P22310 29-534): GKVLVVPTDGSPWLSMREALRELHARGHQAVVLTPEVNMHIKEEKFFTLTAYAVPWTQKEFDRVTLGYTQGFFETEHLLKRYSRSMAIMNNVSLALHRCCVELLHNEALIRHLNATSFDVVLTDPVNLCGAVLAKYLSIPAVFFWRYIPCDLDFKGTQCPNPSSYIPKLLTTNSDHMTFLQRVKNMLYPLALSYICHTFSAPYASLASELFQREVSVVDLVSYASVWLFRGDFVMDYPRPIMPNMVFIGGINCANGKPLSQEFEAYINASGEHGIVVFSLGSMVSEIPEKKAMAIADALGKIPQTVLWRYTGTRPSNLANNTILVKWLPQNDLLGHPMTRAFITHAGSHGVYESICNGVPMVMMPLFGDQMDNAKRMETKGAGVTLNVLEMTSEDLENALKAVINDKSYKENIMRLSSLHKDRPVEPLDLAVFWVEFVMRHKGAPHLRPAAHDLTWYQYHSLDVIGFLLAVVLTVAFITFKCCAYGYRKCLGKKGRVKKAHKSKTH
Description: (§1) The inhibitory potential of six lignans on six UGT activities was evaluated using the previously developed cocktail method with slight modifications. […] These substrates are known to be selective for each UGT isoforms.

By UniProt entry, the sequences of proteins in these tests, tags left out. Residues count along the entry.
UniProt P33261, whole entry: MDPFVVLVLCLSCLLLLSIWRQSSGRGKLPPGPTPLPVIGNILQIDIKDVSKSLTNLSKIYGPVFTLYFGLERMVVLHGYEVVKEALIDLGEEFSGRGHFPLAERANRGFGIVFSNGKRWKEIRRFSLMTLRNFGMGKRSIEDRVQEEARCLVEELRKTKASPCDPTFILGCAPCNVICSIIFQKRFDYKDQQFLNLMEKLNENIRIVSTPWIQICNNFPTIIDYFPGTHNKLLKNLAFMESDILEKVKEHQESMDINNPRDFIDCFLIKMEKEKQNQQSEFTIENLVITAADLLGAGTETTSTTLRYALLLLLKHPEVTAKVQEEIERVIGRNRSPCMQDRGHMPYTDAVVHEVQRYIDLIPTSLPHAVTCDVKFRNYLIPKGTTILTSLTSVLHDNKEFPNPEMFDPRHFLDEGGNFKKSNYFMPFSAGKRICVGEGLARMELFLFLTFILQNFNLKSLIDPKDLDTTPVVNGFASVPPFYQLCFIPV
UniProt P10635, whole entry: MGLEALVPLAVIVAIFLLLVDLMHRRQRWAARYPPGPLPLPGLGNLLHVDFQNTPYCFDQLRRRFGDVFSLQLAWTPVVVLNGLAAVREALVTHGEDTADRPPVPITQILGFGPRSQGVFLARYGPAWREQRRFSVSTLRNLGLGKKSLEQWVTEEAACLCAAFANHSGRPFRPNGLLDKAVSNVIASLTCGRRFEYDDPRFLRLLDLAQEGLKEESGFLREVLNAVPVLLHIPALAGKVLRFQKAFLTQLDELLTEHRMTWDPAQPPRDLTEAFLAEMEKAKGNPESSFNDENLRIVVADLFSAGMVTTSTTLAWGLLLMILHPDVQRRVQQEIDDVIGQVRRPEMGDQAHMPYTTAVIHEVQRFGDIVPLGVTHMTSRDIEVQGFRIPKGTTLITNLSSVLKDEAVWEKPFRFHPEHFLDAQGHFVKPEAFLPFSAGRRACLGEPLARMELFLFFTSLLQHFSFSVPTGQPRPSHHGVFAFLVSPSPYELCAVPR
UniProt P08684, 2-503: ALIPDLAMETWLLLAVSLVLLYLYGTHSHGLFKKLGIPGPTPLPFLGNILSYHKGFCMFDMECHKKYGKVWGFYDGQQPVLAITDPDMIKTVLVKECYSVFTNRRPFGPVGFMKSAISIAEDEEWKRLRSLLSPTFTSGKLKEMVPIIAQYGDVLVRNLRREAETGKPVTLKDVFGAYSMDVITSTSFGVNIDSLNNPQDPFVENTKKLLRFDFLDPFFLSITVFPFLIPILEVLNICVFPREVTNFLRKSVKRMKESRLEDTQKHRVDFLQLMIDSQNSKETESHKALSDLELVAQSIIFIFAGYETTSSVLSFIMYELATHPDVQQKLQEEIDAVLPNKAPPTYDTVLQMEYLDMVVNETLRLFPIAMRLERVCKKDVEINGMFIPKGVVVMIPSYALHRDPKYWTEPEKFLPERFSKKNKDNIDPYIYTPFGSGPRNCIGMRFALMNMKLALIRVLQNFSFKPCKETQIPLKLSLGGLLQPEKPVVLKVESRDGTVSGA
UniProt P10632, whole entry: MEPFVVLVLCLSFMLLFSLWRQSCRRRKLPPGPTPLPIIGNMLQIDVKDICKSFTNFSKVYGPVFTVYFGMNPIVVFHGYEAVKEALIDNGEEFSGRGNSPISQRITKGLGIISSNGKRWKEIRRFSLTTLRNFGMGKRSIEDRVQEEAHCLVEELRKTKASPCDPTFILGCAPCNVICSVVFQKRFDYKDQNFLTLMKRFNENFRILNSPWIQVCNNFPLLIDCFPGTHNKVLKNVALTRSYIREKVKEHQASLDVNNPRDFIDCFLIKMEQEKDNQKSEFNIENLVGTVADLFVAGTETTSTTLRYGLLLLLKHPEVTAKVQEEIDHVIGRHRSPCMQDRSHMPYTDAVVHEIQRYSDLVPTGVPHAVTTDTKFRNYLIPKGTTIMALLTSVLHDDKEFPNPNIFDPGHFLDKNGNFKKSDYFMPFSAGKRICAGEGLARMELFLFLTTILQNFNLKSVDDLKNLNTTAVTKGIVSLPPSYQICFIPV

[2] = target: T2, rCYP2C19 (Homo sapiens, UniProt P33261); assay: Inhibition of recombinant CYP2C19 (S-mephenytoin); type: in vitro ADME
T2 construct: purchased SPMED (Busan, Korea)
Description: The incubation mixture consisted of 0.1 M potassium phosphate buffer (pH 7.4), 20 pmol/mL rCYP2C8, rCYP2C19, or rCYP3A4 enzyme, respective probe substrate and gomisin A (0~50 μM) in a final volume of 100 μL. After a 5 min pre-incubation period at 37 °C, reactions were initiated by the addition of an NADPH generating system, and further incubated for 10 min at 37 °C. […] Other conditions remained as described above.

[3] = target: CYP2D6 (Homo sapiens, UniProt P10635); assay: CYP2D6 inhibition in HLMs (dextromethorphan)
[4] = target: CYP3A (Homo sapiens, UniProt P08684); assay: CYP3A inhibition in HLMs (midazolam, nifedipine, testosterone); settings: for IC50 Shift, CYP3A (midazolam) / IC50 Shift, CYP3A (nifedipine) / IC50 Shift, CYP3A (testosterone): RI/TDI fold shift;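 on all read-outs here: pooled HLMs at 0.25 mg/mL in phosphate buffer, inhibitor across 0–50 µM, 10 min reaction at 37 °C after preincubation, probe metabolite quantified by LC-MS/MS, triplicate incubations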
[5] = target: T3, CYP2C8 (Homo sapiens, UniProt P10632); assay: CYP2C8 inhibition in HLMs (amodiaquine); type: in vitro ADME; settings: for IC50 Shift, CYP2C8: RI/TDI fold shift
T3 construct: pooled HLMs (0.25 mg/mL); tissue XenoTech H2630; host or cells: pooled human liver microsomes, mixed gender
Description: Lignans were first dissolved in methanol. […] All microsomal incubations were performed in triplicate.

[6] = target: T4, UGT1A3 (Homo sapiens, UniProt P35503); assay: UGT1A3 inhibition in HLMs (chenodeoxycholic acid); type: in vitro ADME; settings: average in triplicate, read-out: IC50, UGT 1A3
T4 construct: pooled HLMs (0.25 mg/mL); tissue XenoTech H2630; host or cells: pooled human liver microsomes, mixed gender
T4 sequence (P35503 29-534): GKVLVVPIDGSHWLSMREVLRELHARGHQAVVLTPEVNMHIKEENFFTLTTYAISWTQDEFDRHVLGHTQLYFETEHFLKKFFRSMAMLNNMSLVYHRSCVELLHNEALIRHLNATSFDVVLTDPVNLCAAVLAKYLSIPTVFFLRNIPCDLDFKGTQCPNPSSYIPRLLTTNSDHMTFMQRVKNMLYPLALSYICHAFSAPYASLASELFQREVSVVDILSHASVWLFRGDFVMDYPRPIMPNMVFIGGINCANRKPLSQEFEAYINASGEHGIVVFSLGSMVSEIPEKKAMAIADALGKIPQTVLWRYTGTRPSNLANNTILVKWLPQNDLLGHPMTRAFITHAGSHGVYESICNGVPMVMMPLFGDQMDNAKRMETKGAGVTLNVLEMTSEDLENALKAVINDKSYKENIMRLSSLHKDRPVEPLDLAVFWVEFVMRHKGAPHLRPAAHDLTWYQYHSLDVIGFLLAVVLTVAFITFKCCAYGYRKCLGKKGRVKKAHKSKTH
Description: as §1

[7] = target: T5, UGT1A9 (Homo sapiens, UniProt O60656); assay: UGT1A9 inhibition in HLMs (mycophenolic acid); type: in vitro ADME; settings: average in triplicate, read-out: IC50, UGT 1A9
T5 construct: pooled HLMs (0.25 mg/mL); tissue XenoTech H2630; host or cells: pooled human liver microsomes, mixed gender
T5 sequence (O60656 26-530): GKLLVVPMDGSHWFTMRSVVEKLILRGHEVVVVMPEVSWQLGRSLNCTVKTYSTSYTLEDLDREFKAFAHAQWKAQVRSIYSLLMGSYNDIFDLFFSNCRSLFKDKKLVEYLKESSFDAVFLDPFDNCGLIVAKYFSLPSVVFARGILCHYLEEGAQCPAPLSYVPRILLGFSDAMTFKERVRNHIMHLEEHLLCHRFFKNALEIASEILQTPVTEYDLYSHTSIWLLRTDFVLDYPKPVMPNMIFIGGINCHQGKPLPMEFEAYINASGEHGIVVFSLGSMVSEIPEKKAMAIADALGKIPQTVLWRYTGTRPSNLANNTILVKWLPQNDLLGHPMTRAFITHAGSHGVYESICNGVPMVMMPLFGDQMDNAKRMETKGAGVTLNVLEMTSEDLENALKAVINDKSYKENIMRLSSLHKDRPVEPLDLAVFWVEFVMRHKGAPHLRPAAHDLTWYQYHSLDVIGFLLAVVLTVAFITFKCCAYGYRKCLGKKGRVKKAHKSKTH
Description: as §1

[8] = read-out: IC50 RI, CYP2D6, reversible inhibition
[9] = read-out: IC50 TDI, CYP2D6, 30 min pre-incubation with NADPH generating system
[10] = read-out: IC50, CYP3A activity (across probe substrates), reversible inhibition, probe substrate not singled out
[11] = read-out: IC50 RI, CYP3A (midazolam), midazolam, reversible inhibition
[12] = read-out: IC50 RI, CYP3A (nifedipine), nifedipine, reversible inhibition
[13] = read-out: IC50 RI, CYP3A (testosterone), testosterone, reversible inhibition
[14] = read-out: IC50 TDI, CYP3A (midazolam), midazolam, 30 min pre-incubation with NADPH generating system
[15] = read-out: IC50 TDI, CYP3A (nifedipine), nifedipine, 30 min pre-incubation with NADPH generating system
[16] = read-out: IC50 TDI, CYP3A (testosterone), testosterone, 30 min pre-incubation with NADPH generating system
[17] = 30 min pre-incubation with NADPH generating system, read-out: IC50 TDI, CYP2C8
[18] = reversible inhibition, read-out: IC50 RI, CYP2C8

Substance	IC50 [1] [µM]	IC50 [3, 8] [µM]	IC50 [3, 9] [µM]	IC50 Shift, CYP3A (midazolam) [4]	IC50 Shift, CYP3A (nifedipine) [4]	IC50 [4, 10] [µM]	IC50 [4, 11] [µM]	IC50 [4, 12] [µM]	IC50 [4, 13]	IC50 [4, 14] [µM]	IC50 [4, 15] [µM]	IC50 [4, 16] [µM]	IC50 Shift, CYP3A (testosterone) [4]	IC50 [5, 17]	IC50 Shift, CYP2C8 [5]	IC50 [5, 18] [µM]	IC50 [6] [µM]	IC50 [7] [µM]	also measured
gomisin A	> 50	45.7	> 50	2.6	2.3	1.3 to 4.5	3.1	1.8	2.3 µM	1.2	0.77	0.77	3.0	≤ 5 µM and 2.8 µM	10.5	29.3	> 50	> 50	IC50 ([2]; recombinant enzyme 20 pmol/mL, average ± S.E. of triplicate, read-out: IC50 RI, rCYP2C19): 11.3 ± 3.3 µM; IC50 ([2]; recombinant enzyme, 30 min NADPH pre-incubation, average ± S.E., listed as gomisin A, read-out: IC50 TDI, rCYP2C19): < 5 µM; IC50 ([2]; recombinant enzyme, 30 min NADPH pre-incubation, average ± S.E., read-out: IC50 TDI, rCYP2C19): 4.98 ± 0.49 µM; IC50 shift, rCYP2C19 ([2]; recombinant enzyme, RI/TDI fold shift): 2.3; IC50 ([4]; read-out: IC50, time-dependent inhibition of CYP3A (across probe substrates), 30 min NADPH pre-incubation, probe substrate not singled out): < 5 µM; IC50 ([5]; 30 min pre-incubation with NADPH generating system, listed as gomisin A, read-out: IC50 TDI, CYP2C8): < 5 µM; IC50 ([5]; reversible inhibition, listed as gomisin A, read-out: IC50 RI, CYP2C8): > 29 µM
gomisin B	> 50	45.5	> 50	3.5	3.2	0.28 to 0.42	0.42	0.32	0.19 to 0.28 µM and 0.28 µM	0.12	0.1	0.09	3.1	4.9 µM	3.4	16.5	16.5	> 50	
